How the values were obtained:
[1] = Detergency solubility of carboxylic acid coatings in KOH based system (Example 1); format: physicochemical; details: acidic coating, materials dissolved in DMAC
[2] = Water solubility of carboxylic acid coatings (Example 1); details: acidic coating; materials dissolved in n,n-dimethylacetamide (DMAC)

Detergency (KOH based system) [1]: Yes
Water solubility (observed) [2]: Limited/no
Compound: O=C(O)C1CCC(C(=O)O)CC1 (centres unmarked) [1,4-CHDA HP]

— patent US9790407B2, “Aqueous detergent soluble coating and adhesive and methods of temporary bonding for manufacturing” (priority 2013, dated 2017)
